Laboratory results from paper PMC4721142, “Randomized controlled studies on the efficacy of antiarthritic agents in inhibiting cartilage degeneration and pain associated with progression of osteoarthritis in the rat” (Arthritis Research & Therapy, 2016).

Test system: RAW 264.7 cells
Assay: RANKL-mediated osteoclastogenesis / matrix resorption (Osteologic) assay

## NCCCC(O)(P(=O)(O)O)P(=O)(O)O [Alendronate, Alendronate sodium]
  Lowest inhibitory concentration, matrix resorption: 1.25 µM
